Values quoted from earlier work in publication PMC3673949, “Small Molecule R1498 as a Well-Tolerated and Orally Active Kinase Inhibitor for Hepatocellular Carcinoma and Gastric Cancer Treatment via Targeting Angiogenesis and Mitosis Pathways” (PLoS ONE, 2013).

Tested on: HER2/neu overexpressing gastric adenocarcinomas
Set-up: method as in PMID 20728210
Conditions: in combination with chemotherapy; chemotherapy alone 11.1 months; cited from earlier work

Substance: trastuzumab
- median overall survival: 13.8 months
